## scFv variants of Ab-95 (light chain) against a SARS-CoV-2 spike peptide

Binding partner: SARS-CoV-2 spike HR2 peptide, sequence PDVDLGDISGINAS.

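Variants in AAYL52 differ from the parent at up to three CDR positions; double and triple changes were sampled at random. AlphaSeq pools MATa yeast showing the antibodies with MATalpha yeast showing the peptide. After mating in shaken culture at 30 °C for 16 h, diploids were selected and their barcode pairs sequenced. A regression on co-assayed BCL2-family reference pairs converts the normalised counts of each replicate to an apparent Kd. The assay was run in three technical replicates.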

Parent scFv Ab-95: VH joined to VL by the linker GGGGSGGGGSGGGGS. Changes lie in the light chain CDRs alone.
VH: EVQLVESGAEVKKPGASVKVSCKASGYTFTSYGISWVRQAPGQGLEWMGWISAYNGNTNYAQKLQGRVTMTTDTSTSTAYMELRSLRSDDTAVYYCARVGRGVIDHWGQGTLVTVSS
VL: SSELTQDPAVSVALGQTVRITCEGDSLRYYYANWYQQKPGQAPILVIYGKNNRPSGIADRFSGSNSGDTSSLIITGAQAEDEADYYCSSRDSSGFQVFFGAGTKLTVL

The parent's light chain CDRs are EGDSLRYYYAN, GKNNRPS, SSRDSSGFQVF; each variant's own CDRs replace them letter for letter. Affinities are written as log10 Kd with Kd in nM; a lower number is a better binder. "ND" marks a missing value. The strain was present, yet no cells mated with the target were sequenced in that replicate, which points to weak or no binding. Parent in this assay: reference entry 2.31, copy in this library 2.25. As a blank, each scFv also met three strains without target: over library AAYL52, 28% of these pairings were detected, typically at 3.91 and seldom below 2.90. The control count says in how many pairings with the empty strains this scFv gave a signal, with their mean in brackets.

CDR-L1	CDR-L2	CDR-L3	log10 Kd, replicates	control signals
EGDSLQYRYAN	GKNNRPS	SSRDSIGFQVF	4.91 / 3.54 / 4.33	2 of 9 (3.74)
EGDSLRYYYEN	GKDNRPS	SSTDSSGFQVF	3.99 / ND / 3.88	3 of 9 (4.39)
MQDSLRYYYAN	GKNNRPS	SSRDSSGFQTF	3.70 / ND / ND	4 of 9 (4.29)
EGWSLRYYYAN	GKNNRPS	SSRDSSEFQVF	3.82 / ND / 4.59	7 of 9 (4.26)
EGDTLRYYYAN	GKSNRPS	NSRDSSGFQVF	3.72 / 3.40 / ND	5 of 9 (4.23)
EGDSTRYYYAN	TKNNRPS	SSRDSCGFQVF	3.47 / 3.83 / 3.97	6 of 9 (4.02)
ECDSLEYYYAN	GKNNRPS	SSRDSSGFQTF	3.78 / ND / ND	0 of 9
EGDSLRYYYAN	GKNNRTS	SSRDGRGFQVF	2.24 / 3.20 / 2.12	1 of 9 (3.71)
EGDSLRYPYAN	GSNNRPS	WSRDSSGFQVF	4.39 / 5.77 / 3.65	3 of 9 (3.99)
EDDSLRYYYAN	GKKNRPS	DSRDSSGFQVF	ND / 3.66 / ND	3 of 9 (5.09)
EGDSLRYYYAN	GKMNRPS	SERDSSGFQKF	4.40 / ND / ND	3 of 9 (4.12)
EKDSLRYYYAN	GKNMRPS	SSRDSSGFQVV	ND / 3.47 / 3.30	3 of 9 (3.04)
EGDSLRYYYAN	GKNNRPS	RSRWSSCFQVF	2.33 / 2.26 / 2.62	3 of 9 (3.13)
YGDSLRYYYAN	GKNNRPS	SSPDPSGFQVF	2.80 / 3.76 / 3.07	1 of 9 (3.86)
EGVSLRYYYAN	GKNNRIS	SSRDSLGFQVF	3.39 / ND / 4.37	3 of 9 (3.37)
EGDDLRYYYAN	GKNNRPS	SWRDGSGFQVF	ND / 5.21 / ND	2 of 9 (4.15)
EGDSLRYYYAN	GKNNRDG	SSRDSSGFQVF	3.00 / 2.90 / 3.06	3 of 9 (3.89)
EGDSLRAYYAN	GKNNAPS	SSRDSEGFQVF	ND / 3.67 / ND	5 of 9 (4.36)
EGDSLRYYQAN	GKNNRPS	SSRDSIGFQVF	2.37 / 1.80 / 1.72	2 of 9 (3.53)
EDDSLRYYYAN	GGNNRPS	SSRDSSGFQVF	2.92 / 2.82 / 4.13	3 of 9 (4.07)
EGDSLRYYYAN	GKNNYPS	SHRVSSGFQVF	3.23 / ND / ND	2 of 9 (3.58)
EVLSLRYYYTN	GKNNRPS	SSRDSSGFQVF	ND / ND / 2.87	4 of 9 (3.29)
ETDSLRYYYMN	GKNNRPS	MSRDSSGFQVF	2.99 / 3.38 / ND	2 of 9 (3.58)
EGDSLRYYFAN	GKNNRES	SSRDSSGYQVF	2.52 / 2.67 / 1.71	1 of 9 (2.82)
EGDSLRYYYAN	GKNNRPS	SSRDSSGFWVF	2.19 / 2.32 / 1.46	2 of 9 (4.10)
EGDSARYYYAN	NKNNRPS	SSRDSSGFQVF	ND / 3.32 / 4.28	2 of 9 (3.72)
EGDSLCYYGAN	GKNNRPS	SSRDSSQFQVF	2.75 / 2.43 / 1.77	3 of 9 (4.01)
EGDYLRYYYAN	GKNNCPS	SSRDSNGFQVF	ND / 4.75 / 4.22	1 of 9 (3.17)
EADSIRYYYAN	GCNNRPS	SSRDSSGFQVF	4.21 / 3.78 / ND	4 of 9 (4.07)
ERDSCRYYYAN	GKNKRPS	SSRDSSGFQVF	ND / ND / ND	1 of 9 (3.90)
ECDSLRYYYAN	GKPERPS	SSRDSSGFQVF	ND / 4.97 / 4.03	1 of 9 (3.42)
EGDSLRYYYAN	GKINRPS	SGRDASGFQVF	3.55 / 3.24 / 2.67	2 of 9 (3.82)
EGDSLRYYYAN	SKVNRPS	SSRHSSGFQVF	3.45 / ND / ND	4 of 9 (4.29)
EGDSLRYYYAC	GKNNRPS	SGRDSQGFQVF	5.43 / ND / ND	2 of 9 (4.09)
EGDSLRYNYAN	GKNNRKS	SNRDSSGFQVF	4.23 / ND / ND	1 of 9 (3.61)

Extract of 3 entries:

CDR-L1	CDR-L2	CDR-L3	log10 Kd, replicates	control signals
EDDSLRYYYAN	GGNNRPS	SSRDSSGFQVF	2.92 / 2.82 / 4.13	3 of 9 (4.07)
EGDSLRYYYAN	SKVNRPS	SSRHSSGFQVF	3.45 / ND / ND	4 of 9 (4.29)
ETDSLRYYYMN	GKNNRPS	MSRDSSGFQVF	2.99 / 3.38 / ND	2 of 9 (3.58)

From the AlphaSeq antibody data of Engelhart et al. 2022 (doi:10.1038/s41597-022-01779-4), copy in the FLAb collection.